Legend:
[1] = biological target: Synaptotagmin 1, endogenous in mouse neurons and mouse brain (mouse (endogenous in primary neurons and brain)) (UniProt P46096); assay: not stated; unpublished data on mouse brain (normal aging; 9 month old Tg2576 mice)
[2] = biological target: Synaptotagmin 1, endogenous in mouse neurons and mouse brain (mouse (endogenous in primary neurons and brain)) (UniProt P46096); assay: FRET or BRET; antibody-based FLIM on fixed primary neurons (anti-PS1 NT and anti-Syt1) after 15 min 50 mM KCl; pre-treated 2 h with 5 μM scramble or PS1-LNT peptide

- decrease in the PS1-Syt1 interaction in 9 month old Tg2576 AD mice [1]: 30%
- increase of the relative FRET efficiency (PS1-Syt1 proximity) by KCl against no KCl, scramble peptide pre-treated cells [2]: 29.5%
Substance: Presenilin 1, endogenous in mouse neurons and mouse brain (from UniProt P49769 1-467) (natural protein)

From PMC5307796
